Test results taken from patent US7442776B2, “Cancerous disease modifying antibodies” (priority 1999, dated 2008).

Assays:
Design in all cases: key to the marks not given beside the values
Details in all cases: purified antibody or control, 5 days incubation, calcein; four experiments in triplicate
[1] = test system: SW1116 colon cancer cell line
[2] = test system: MDA-MB-468 (MB-468) breast cancer cell line; test: Live/Dead cytotoxicity assay
[3] = test system: CCD-27sk non-cancer cell line

## anti-EGFR: positive control antibody C225, IgG1, kappa, 5 microgram/mL, Cedarlane
[1]
  In Vitro Cytotoxicity, SW1116: +++
[2]
  In Vitro Cytotoxicity, MB-468: +++
[3]
  In Vitro Cytotoxicity, CCD 27sk: ++
